Data from patent US6428804B1, “Intra-articular preparation for the treatment of arthropathy” (SSP Co., Ltd., priority 1997, dated 2002).

Test: Pharmacokinetic test of beclomethasone-propionate-containing microcapsule samples of different particle sizes (Test 1)
Details: rabbit knee joint injection, 1 mg in terms of beclomethasone propionate, 1st day after administration (FIG. 1)

## beclomethasone propionate [bulk powder of beclomethasone propionate]
  amount of beclomethasone propionate in the synovium and its peripheral tissue: substantially no beclomethasone propionate had migrated
